Molecular target: Sodium-dependent serotonin transporter (Homo sapiens, UniProt P31645)
Assay type: cell-based, JAR

Protein sequences, listed by entry. Tags and fused reporters are not part of them.
UniProt P31645, whole entry: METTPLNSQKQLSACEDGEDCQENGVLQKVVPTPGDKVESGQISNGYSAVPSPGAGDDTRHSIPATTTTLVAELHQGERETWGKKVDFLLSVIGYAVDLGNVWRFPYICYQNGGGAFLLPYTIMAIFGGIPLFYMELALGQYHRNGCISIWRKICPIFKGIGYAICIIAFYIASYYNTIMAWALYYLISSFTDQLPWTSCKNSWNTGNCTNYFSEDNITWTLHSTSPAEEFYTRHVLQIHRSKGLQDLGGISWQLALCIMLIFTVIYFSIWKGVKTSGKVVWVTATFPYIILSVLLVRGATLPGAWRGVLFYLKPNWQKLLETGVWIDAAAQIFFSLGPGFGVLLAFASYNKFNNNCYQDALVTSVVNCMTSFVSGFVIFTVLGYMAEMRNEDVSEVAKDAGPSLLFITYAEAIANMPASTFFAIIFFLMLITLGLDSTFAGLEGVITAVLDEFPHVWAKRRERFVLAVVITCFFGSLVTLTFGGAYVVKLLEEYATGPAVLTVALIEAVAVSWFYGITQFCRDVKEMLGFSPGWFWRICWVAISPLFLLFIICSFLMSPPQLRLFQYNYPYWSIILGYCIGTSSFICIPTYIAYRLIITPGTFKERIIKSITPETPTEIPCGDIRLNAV

## CN(C)C[C@@H](c1cccc(Cl)c1)C1(O)CCCCC1
  IC50: 405 nM

## CN(C)C[C@H](c1cccc(Cl)c1)C1(O)CCCCC1
  IC50: 155 nM

## CN(C)CC(c1cccc(Cl)c1)C1(O)CCCCC1 (stereo not drawn)
  IC50: 292 nM

Source: ChEMBL document CHEMBL1155011, “Structure-activity relationships of the cycloalkanol ethylamine scaffold: discovery of selective norepinephrine reuptake inhibitors” (J Med Chem, 2008)
